Laboratory results published in ChEMBL document CHEMBL4837269, “Identification of 6-Hydroxypyrimidin-4(1H)-one-3-carboxamides as Potent and Orally Active APJ Receptor Agonists” (ACS Med Chem Lett, 2021).

What follows are compounds tested against T1, Apelin receptor (Homo sapiens, UniProt P35414) (assay: Agonist activity at human APJ receptor expressed in HEK293T cells assessed as compound stimulated inhibition of forskolin stimulated cAMP production incubated for 30 mins by HTRF assay).
T1 sequence (P35414 whole entry): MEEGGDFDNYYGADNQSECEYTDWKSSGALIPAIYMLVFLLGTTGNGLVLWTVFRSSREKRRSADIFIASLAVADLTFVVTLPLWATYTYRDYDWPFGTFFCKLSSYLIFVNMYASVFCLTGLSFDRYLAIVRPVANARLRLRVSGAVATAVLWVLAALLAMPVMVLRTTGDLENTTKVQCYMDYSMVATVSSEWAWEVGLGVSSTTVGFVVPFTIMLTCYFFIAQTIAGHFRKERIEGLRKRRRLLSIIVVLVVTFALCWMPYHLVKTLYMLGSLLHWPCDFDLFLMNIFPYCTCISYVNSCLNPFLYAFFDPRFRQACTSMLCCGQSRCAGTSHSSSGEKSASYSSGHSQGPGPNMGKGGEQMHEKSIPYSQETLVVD
Type: functional, cell-based

EC50	SMILES
0.22 nM	CCCCc1nc(=O)c(C(=O)N2CC[C@H](c3ccccc3)C2)c(O)n1-c1c(OC)cccc1OC
0.26 nM	CCCCc1nc(=O)c(C(=O)N2CC[C@@H](c3ccccc3)C2)c(O)n1-c1c(OC)cccc1OC
0.23 nM	COc1cccc(OC)c1-n1c(NS(=O)(=O)[C@@H](C)[C@H](C)c2ncc(C)cn2)nnc1-c1cncc(C)c1 [AZELAPRAG]
